# Antibody variant affinities, Ab-91 heavy chain, assay 2

The target is the same throughout: PDVDLGDISGINAS, from the HR2 region of SARS-CoV-2 spike.

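The starting antibody came from a phage panning campaign against this peptide. Library AAYL51 holds single substitutions and randomly drawn double and triple substitutions in the CDRs. AlphaSeq pools MATa yeast showing the antibodies with MATalpha yeast showing the peptide. Mating (16 h, 30 °C) was followed by selection of diploids and sequencing of their barcodes. A regression on co-assayed BCL2-family reference pairs converts the normalised counts of each replicate to an apparent Kd. There are three technical replicates.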

Ab-91 is the parent antibody, in scFv form: VL, then a 15-residue (Gly4Ser)3 linker, then VH. The light chain is unchanged in all variants.
VL: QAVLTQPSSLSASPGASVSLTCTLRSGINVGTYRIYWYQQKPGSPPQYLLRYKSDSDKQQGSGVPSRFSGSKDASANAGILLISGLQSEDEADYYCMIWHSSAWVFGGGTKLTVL
VH: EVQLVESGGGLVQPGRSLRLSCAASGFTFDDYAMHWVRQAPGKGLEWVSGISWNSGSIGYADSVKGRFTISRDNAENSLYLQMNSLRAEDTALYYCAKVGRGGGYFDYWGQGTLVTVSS

The parent's heavy chain CDRs are GFTFDDYAMH, GISWNSGSIGYADSVK, VGRGGGYFDY; each variant's own CDRs replace them letter for letter.
Scale: log10 of Kd in nM, estimated from mating counts; low values are strong binders.
The mean shown is taken over the replicates in which the pair was detected.
"n.d." means that the variant was in the library but no mating with the target was seen in that replicate; the authors take this as a sign of poor binding, and no number exists.
Empty control strains, which show no peptide, gave a signal in 21% of pairings with library AAYL51; the median was 4.54 and 95% of these signals were weaker than 3.26. No background was subtracted. Also given: how often the same scFv was detected with the empty control strains, with their mean in brackets.

| CDR-H1 | CDR-H2 | CDR-H3 | replicates, log10 nM | mean, log10 nM | control signals |
|---|---|---|---|---|---|
| GFTFDDYAAH | EISLNSGSIGYADSVK | VGRGGGYFDY | n.d. / n.d. / n.d. | n.d. | 0/9 |
| GFTFDDYAMH | GISWNSGSIAYADSVM | VGRGGQYFDY | 3.34 / n.d. / n.d. | 3.34 | 0/9 |
| GFTFDDYAMH | VISWNSGSIGYAVSVK | VGTGGGYFDY | n.d. / n.d. / n.d. | n.d. | 2/9 (4.26) |
| GTTFDDYAMH | GISWNSNSIGYADSVK | VGRGGGFFDY | 4.12 / n.d. / 4.00 | 4.06 | 2/9 (4.44) |
| GFTFDDKAMH | GISWNSGSIGYAWSVL | VGRGGGYFDY | 4.46 / n.d. / n.d. | 4.46 | 1/9 (5.59) |
| RFTFDDYAMH | GISWNSGEIGYADSVK | VQRGGGYFDY | 4.22 / n.d. / 3.60 | 3.91 | 5/9 (4.86) |
| GFTFDDYYMH | GISWNSISIGYADSVK | VRRGGGYFDY | 4.44 / 5.72 / n.d. | 5.08 | 2/9 (4.84) |
| GTTFDDWADH | GISWNSGSIGYADSVK | VGRGGGYFDY | 4.78 / 5.72 / 4.64 | 5.05 | 4/9 (4.67) |
| GLTFDDYAMH | GISWNSYSHGYADSVK | VGRGGGYFDY | 2.42 / 2.69 / 1.62 | 2.24 | 0/9 |
| GFTNDDYAMH | GISWGSGSHGYADSVK | VGRGGGYFDY | n.d. / n.d. / n.d. | n.d. | 0/9 |
| GFTFDDYAMH | GASWNSGSIGYARSVK | GGRGGGYFDY | n.d. / n.d. / n.d. | n.d. | 0/9 |
| GFTFDDYAMH | GTSWNSGWIGYADSVK | VGRGRGYFDY | 3.95 / n.d. / n.d. | 3.95 | 3/9 (4.14) |
| GFTFDDYAMH | GISWDSGSIGQADSVK | VGRGGGYLDY | n.d. / n.d. / n.d. | n.d. | 0/9 |
| YFTFDDYAMH | GIWWESGSIGYADSVK | VGRGGGYFDY | 4.07 / n.d. / n.d. | 4.07 | 1/9 (5.27) |
| GFTFDDYAMH | GISWNSGSIGYADSMK | VGRGGTYWDY | 2.15 / 2.10 / 2.29 | 2.18 | 3/9 (4.33) |
| GFTFDDYAMH | GPSWNSGSIGYADSQK | VGRGGGYVDY | n.d. / n.d. / n.d. | n.d. | 0/9 |
| GFTFDDYAMS | GISWNDGSIGYADSVK | VGRGGGYHDY | 4.22 / 6.09 / n.d. | 5.16 | 4/9 (4.00) |
| GFTFDDYAMH | GISWNSVFIGYKDSVK | VGRGGGYFDY | n.d. / 5.32 / n.d. | 5.32 | 2/9 (4.47) |
| GFTFDDYAMH | GISWNSRYIGYADSVK | VGRGGGYFNY | 1.99 / 1.81 / 1.27 | 1.69 | 1/9 (4.09) |
| DFTFDDYAMH | GIQWNSGSIGVADSVK | VGRGGGYFDY | 4.15 / 4.74 / 6.10 | 4.99 | 4/9 (4.66) |
| GFTFKDYAMH | GISWNPGSIGAADSVK | VGRGGGYFDY | n.d. / 3.65 / n.d. | 3.65 | 2/9 (3.79) |
| GFTCDDYAMH | GISWNSGSINYADSVK | VGRGGGYFPY | n.d. / n.d. / n.d. | n.d. | 0/9 |
| GFTFDDYLMH | GISWNSGSIGYAQSVK | VGRGGYYFDY | 1.21 / 1.07 / 0.68 | 0.99 | 0/9 |
| GFTFDDYAMH | GISKNSGSDGYADSVK | VGRGGIYFDY | n.d. / n.d. / n.d. | n.d. | 2/9 (3.72) |
| GFTFDDYAMD | GIMWNSGSIGYADSVK | VGRGIGYFDY | n.d. / n.d. / n.d. | n.d. | 0/9 |
| GFTFDLYAMH | GISWNSGKIGYADSVK | VGRGGGYFDP | 5.16 / 4.23 / n.d. | 4.70 | 1/9 (4.32) |
| GFTSDDYMMH | GISWNSGVIGYADSVK | VGRGGGYFDY | 3.95 / 6.80 / 4.45 | 5.07 | 6/9 (4.75) |
| GFTFDDCAMH | HISWNSGSIGWADSVK | VGRGGGYFDY | n.d. / 3.43 / n.d. | 3.43 | 1/9 (4.87) |
| CFTFDDYAMH | GSSWNSGSIGYADSVK | VGRGGGYFDS | n.d. / 6.22 / n.d. | 6.22 | 3/9 (4.47) |
| GFTFDDYEMH | GISWNSFSIGYADSWK | VGRGGGYFDY | 3.50 / n.d. / n.d. | 3.50 | 0/9 |
| GFTFDDYAMH | GISWNSGSIGYADSVK | RGMMGGYFDY | n.d. / n.d. / n.d. | n.d. | 0/9 |
| GFTFDDYMMH | GISWNSGSIGYMDSVK | PGRGGGYFDY | 5.83 / 5.37 / 5.03 | 5.41 | 2/9 (4.10) |
| GFTFDDYAMH | GISNNMGSIGIADSVK | VGRGGGYFDY | 4.60 / n.d. / n.d. | 4.60 | 1/9 (3.21) |
| HFTFDDYAMH | GISWNSGSIGYADSVM | VGRGGGYGDY | 3.88 / 4.68 / n.d. | 4.28 | 1/9 (3.69) |
| GFRFDDYAMG | GISWNSGSIGYWDSVK | VGRGGGYFDY | n.d. / n.d. / n.d. | n.d. | 1/9 (4.78) |
| GFNFDDYAMH | GISWNCGSIGYADSVK | VGRGGGYFDN | 2.60 / 3.11 / 2.19 | 2.63 | 0/9 |
| GFTFDFYAHH | GISWLSGSIGYADSVK | VGRGGGYFDY | n.d. / n.d. / n.d. | n.d. | 0/9 |
| GFSFDDYAMH | GISWNSGSIGYADSVK | KGQGGGYFDY | n.d. / n.d. / n.d. | n.d. | 0/9 |
| GFTFDDYAMH | GISTNSHSIGYRDSVK | VGRGGGYFDY | 4.37 / 5.08 / 4.43 | 4.63 | 5/9 (4.85) |
| GFTFDDYAMH | GISRHSGSSGYADSVK | VGRGGGYFDY | n.d. / 4.34 / 4.44 | 4.39 | 6/9 (5.24) |
| GFTFDWYAMH | GISWWSGSIGYADSVK | VGRGGGYFPY | 5.07 / 3.79 / n.d. | 4.43 | 1/9 (4.48) |
| GFTFEDYAMH | GISWNSGSIGYKDSVS | VGRGGGYFDY | n.d. / n.d. / n.d. | n.d. | 0/9 |
| GFTFDNYAMH | GISWNSGSIGYADSIK | DGRGGGYFDY | 4.97 / 5.40 / 4.14 | 4.83 | 7/9 (4.60) |

Picked from the list: the 3 lowest averages where every replicate gave a value.

CDR-H1	CDR-H2	CDR-H3	replicates, log10 nM	mean, log10 nM	control signals
GFTFDDYLMH	GISWNSGSIGYAQSVK	VGRGGYYFDY	1.21 / 1.07 / 0.68	0.99	0/9
GFTFDDYAMH	GISWNSRYIGYADSVK	VGRGGGYFNY	1.99 / 1.81 / 1.27	1.69	1/9 (4.09)
GFTFDDYAMH	GISWNSGSIGYADSMK	VGRGGTYWDY	2.15 / 2.10 / 2.29	2.18	3/9 (4.33)

Reference: Engelhart et al. 2022, doi:10.1038/s41597-022-01779-4. File: FLAb, binding data.